From patent US11241430B2, “Solid forms of 2-(tert-butylamino)-4-((1R,3R,4R)-3-hydroxy-4-methylcyclohexylamino)-pyrimidine-5-carboxamide, compositions thereof and methods of their use” (Signal Pharmaceuticals, LLC, priority 2014, dated 2022)

Assay: Slurry experiments of Form H in water/DMSO (form map)
Settings: 60° C., 1:1 (50% water) to 1:4 DMSO:Water (80% water)

With `C[C@@H]1CC[C@@H](Nc2nc(NC(C)(C)C)ncc2C(N)=O)C[C@H]1O` [Form A, 2-(tert-butylamino)-4-((1R,3R,4R)-3-hydroxy-4-methylcyclohexylamino)-pyrimidine-5-carboxamide] the “form stability in water/DMSO” value was “favored”.
